The target of experiment [1] is BTK (Homo sapiens (Human), UniProt Q06187). The experiment in a line: In-gel fluorescence labeling of BTK in Mino cells / lysate.
Experiment [2] relates to primary mouse B cells. The experiment in a line: B-cell response experiment (anti-IgM activation, CD86 expression). To be noted: 24 h, 37° C.
Experiment [3] has as its system Mino cells. In words: Pull-down proteomics in Mino cells. To be noted: 100 nM probe. It counts as cell-based. As for the experimental part:
To validate the molecular target of the probes, a competition experiment was performed, where the cells were pre-incubated with Ibrutinib prior to labelling with the probes (FIG. 25C). […] It is interesting to note that some off-targets were not competed by Ibrutinib, indicating these are new off-targets specific to our probes (FIG. 25C). To identify the off-targets of these probes, we performed a pull-down proteomics experiment in Mino cells (FIG. 25D) using 7d. […] Biotin was conjugated to the alkyne via CuAAC, and avidin beads were used for enrichment. BLK, MCAT and ADK were found as off-targets for probe 7d (FIG. 25D). ADK (40.5 kDa) and MCAT (Also known as SLC25A20; 33 kDa) correspond to the two bands seen in the gel (FIG. 25C) that are not competed by Ibrutinib. Both were abundant proteins in the cell which may explain probe binding. Overall very few off-targets were detected for all probes at the lower concentration.

The chains behind the UniProt entries cited, without tags or fusion partners. Residues count along the entry.
UniProt Q06187, 2-659 limits assumed: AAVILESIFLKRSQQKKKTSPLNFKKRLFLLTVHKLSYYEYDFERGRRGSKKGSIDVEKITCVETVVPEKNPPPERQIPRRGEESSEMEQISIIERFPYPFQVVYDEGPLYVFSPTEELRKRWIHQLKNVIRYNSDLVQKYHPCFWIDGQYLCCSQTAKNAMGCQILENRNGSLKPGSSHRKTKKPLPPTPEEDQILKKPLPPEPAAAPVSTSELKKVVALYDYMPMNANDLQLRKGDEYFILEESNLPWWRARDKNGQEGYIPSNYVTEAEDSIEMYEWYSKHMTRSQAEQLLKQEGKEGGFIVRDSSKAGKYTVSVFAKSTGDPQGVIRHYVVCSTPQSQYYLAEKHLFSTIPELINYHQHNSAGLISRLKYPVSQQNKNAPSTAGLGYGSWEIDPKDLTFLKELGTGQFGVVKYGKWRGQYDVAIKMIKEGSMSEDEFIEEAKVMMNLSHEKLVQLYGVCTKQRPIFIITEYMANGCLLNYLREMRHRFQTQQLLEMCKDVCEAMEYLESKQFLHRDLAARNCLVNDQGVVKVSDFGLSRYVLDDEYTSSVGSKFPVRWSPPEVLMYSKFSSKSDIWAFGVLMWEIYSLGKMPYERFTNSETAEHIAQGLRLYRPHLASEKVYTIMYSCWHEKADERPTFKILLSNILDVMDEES

For the compound `C#CCCNC(=O)C(=C)CN1CCC[C@@H](n2nc(-c3ccc(Oc4ccccc4)cc3)c3c(N)ncnc32)C1`, the “BTK labeling in Mino cells” value in experiment [1] (10 nM probe, 2 h) is “robust labeling”; in experiment [1] (100 nM probe) it was “bind to BTK in cells”. Further, the “inhibition of B cell activation (CD86 expression)” value in experiment [2] is on record as “did not inhibit the activation of B cells”. Also, the “off-targets found by pull-down proteomics” value in experiment [3] is “BLK, MCAT and ADK”.
